Experimental data published in patent publication US20080161557A1, “Synthesis of 2-Methyl-4-(4-Methyl-1-Piperazinly)-10H-Thieno(2,3-B) (1,5) Benzodiazepine and Salts Thereof” (LEK PHARMACEUTICALS D.D., priority 2004, published 2008).

Assay: Aqueous solubility of prepared oxalic acid addition salt of olanzapine
Assay type: physicochemical

Question: Which Aqueous solubility does the source give for “olanzapine oxalate [oxalic acid addition salt of olanzapine]” here?
Answer: up to 800 mg/ml
